Molecular target: Adenosine receptor A1 (Rattus norvegicus, UniProt P25099)

Amino acid sequences for entries named in this document (tags omitted).
UniProt P25099, whole entry: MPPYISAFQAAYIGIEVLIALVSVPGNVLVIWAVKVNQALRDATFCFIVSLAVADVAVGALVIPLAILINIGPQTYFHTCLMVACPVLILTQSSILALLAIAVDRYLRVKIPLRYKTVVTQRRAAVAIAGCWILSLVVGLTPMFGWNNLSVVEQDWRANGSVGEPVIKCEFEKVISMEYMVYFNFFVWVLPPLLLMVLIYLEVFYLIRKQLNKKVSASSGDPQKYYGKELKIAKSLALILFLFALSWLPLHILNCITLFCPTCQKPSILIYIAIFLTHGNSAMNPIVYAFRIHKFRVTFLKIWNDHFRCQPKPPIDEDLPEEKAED

Ki [nM]	SMILES
3080	CCNC(=O)[C@H]1O[C@@H](n2cnc3c(N)nc(NCCc4ccc(CCC(=O)O)cc4)nc32)[C@H](O)[C@@H]1O [3-(4-{2-[6-Amino-9-((2R,3R,4S,5S)-5-ethylcarbamoyl-3,4-dihydroxy-tetrahydro-furan-2-yl)-9H-purin-2-ylamino]-ethyl}-phenyl)-propionic acid]
910	Nc1nc(Nc2ccccc2)nc2c1ncn2[C@@H]1O[C@H](CO)[C@H](O)C1O (some centres not stated) [(CV 1808) 2-(6-Amino-2-phenylamino-purin-9-yl)-5-hydroxymethyl-tetrahydro-furan-3,4-diol]

From BindingDB's records for PubMed 2795469 (Ciba-Geigy, 1989)
